Earlier results on one molecule are cited in patent US20250170153A1, “METHODS FOR THE TREATMENT OF ANXIETY DISORDER” (ANANDA SCIENTIFIC, INC., priority 2022, published 2025).

SMILES strings stand for the structures.

The conditions of this series: doses 10 mg to 6000 mg, single and multiple doses; cited from earlier work.

For the molecule `C=C(C)[C@@H]1CCC(C)=C[C@H]1c1c(O)cc(CCCCC)cc1O` [CBD, 2-(1R,6R)-3-methyl-6-prop-1-en-2-ylcyclohex-2-en-1-yl-5-pentylbenzene-1,3-diol], the Safety for use entry is “safe”.
